For one molecule, solubility results are on record in US10660908B2, “Pharmaceutical spray composition comprising a vitamin D analogue and a corticosteroid” (LEO Pharma A/S, priority 2010, dated 2020).

Bounds are passed on as bounds.

The data set can be described thus: Solubility of vitamin D analogues and corticosteroids in different propellant mixtures (Example 7). The note with it: ambient temperature, mean of 2 determinations.

Consider `CCCC(=O)O[C@]1(C(=O)CO)CC[C@H]2[C@@H]3CCC4=CC(=O)CC[C@]4(C)[C@H]3[C@@H](O)C[C@@]21C` [Hydrocortisone 17-butyrate, hydrocortisone 17-butyrate], for which the solubility runs as follows: (DME 0 weight % of total propellant (butane only)) 3 μg/g propellant; (DME 16 weight % of total propellant) 68 μg/g propellant; (DME 53 weight % of total propellant) more than 1600 μg/g propellant.
